Results: patent US20220323443A1, “COMBINATION THERAPY FOR CANCER TREATMENT” (TAKEDA PHARMACEUTICAL COMPANY LIMITED, priority 2019, published 2022)

How the values were obtained:
Test in all cases: In vivo combination study, syngeneic mouse tumor isograft model
[1] = system: CT26 Mouse syngeneic colon tumor model
Procedure: (§1) To investigate in vivo antitumor activity of Compound 1 in combination with other agents, tests using Cell Derived Xenograft (CDX), Patient Derived Xenograft (PDX) and Syngeneic mouse tumor isograft model were conducted. Cells or Patient Derived Tumors were inoculated by one method of the following two methods (Method A and B) as shown Table 7.
(§2) Method A; Cells were maintained in either immune deficient nude mice or immune competent mice by subcutaneous inoculation of tumor cells at various concentrations into respected mice. Method B: Patient Derived Tumor s were maintained in nude mice by subcutaneous inoculation of tumor pieces (approx. 2×2×2 mm) into nude mice. Mice with tumor size of approximately 50 mm^3 (e.g., 40-75 mm^3) for syngeneic mouse studies or 200 mm^3 (e.g., 110-270 mm^3) for xenograft studies were randomly assigned to dose groups on the day (Day 0) before start date of dosing.
(§3) Compound 1 (crystalline form I) was suspended in 0.5 w/v % methylcellulose and administered orally to mice. Antibodies which administered in the experiment were described in Table 8.
(§4) Tumor size was measured by caliper and tumor volume was estimated using the equation V=(LW^2)/2, where L and W are tumor length and width, respectively and reported in cubic millimeters.
(§5) These values were compared across treatment groups to assess whether the differences in the trends over time were statistically significant. To compare pairs of treatment groups, the following mixed-effects linear regression model was fit to the data using the maximum likelihood method:
(§6) For synergy analyses, the observed differences in the log tumor values were used to calculate AUC values for each animal. In instances when an animal in a treatment group was removed from the study, the last observed tumor value was carried forward through all subsequent time points. The AUC for the control, or vehicle, group was calculated using the predicted values from the pairwise models described above. We defined a measure of synergy as follows:
(§7) where Ak and Bk are the k^th animal in the individual treatment groups and ABk is the k^th animal in combination treatment group. AUCcd is the model-predicted AUC for the control group and was treated as a constant with no variability. The standard error of the synergy score was calculated as the square root of the sum of squared standard errors across groups A, B, and AB. The degrees of freedom were estimated using the Welch-Satterthwaite equation. A hypothesis test was performed to determine if the synergy score differed from 0. P values were calculated by dividing the synergy score by its standard error and tested against a t-distribution (two-tailed) with the above-calculated degrees of freedom.
(§8) The effect was classified into four different categories. It was considered synergistic if the synergy score was less than 0 and additive if the synergy score wasn't statistically different from 0. If the synergy score was greater than zero, but the mean AUC for the combination was lower than the lowest mean AUC among the two single agent treatments, then the combination was sub-additive. If the synergy score was greater than zero, and the mean AUC for the combination was greater than the mean AUC for at least one of the single agent treatments, then the combination was antagonistic.

B16F10 (Melanoma) = system: B16F10 (Melanoma)
Procedure: as §1, §2, §3, §4, §5, §6, §7, §8

A20 (Lymphoma) = system: A20 (Lymphoma)
Procedure: as §1, §2, §3, §4, §5, §6, §7, §8

## NKTR-214: listed among checkpoint inhibitors; given intravenously at 0.8 mg/kg
[1]; CT26 (64 mm^3) FIG. 8, Compound 1 60 mg/kg orally QD × 3/wk day 0,1,2,7,8,9,14,15,16, NKTR-214 0.8 mg/kg intravenously Q9D Day 0,9,18
  Result (combination with Compound 1, tumor growth): Additive
[1]; note to Table 9, by note order: NKTR-214 study in CT26 (64 mm^3)
  CR per group: 0
B16F10 (Melanoma); B16F10 (67 mm^3), Compound 1 60 mg/kg orally QD × 3/wk day 0,1,2,7,8,9, NKTR-214 0.8 mg/kg intravenously Q9D Day 0,9,18
  Result (combination with Compound 1, tumor growth): Additive
B16F10 (Melanoma); note to Table 9, by note order: NKTR-214 study in B16F10 (67 mm^3)
  CR per group: 0
A20 (Lymphoma); A20 (61 mm^3), Compound 1 60 mg/kg orally QD × 3/wk day 0,1,2,7,8,9,14,15,16, NKTR-214 0.8 mg/kg intravenously Q9D Day 0,9,18
  Result (combination with Compound 1, tumor growth): Additive
A20 (Lymphoma); note to Table 9, by note order: NKTR-214 study in A20 (61 mm^3)
  CR per group: 3
